Biological target: His-tagged recombinant human Gal-3 (hGal-3) (Homo sapiens, UniProt P17931)
Assay: Gal-3 HTRF assay (hGal-3 / B-ASF binding inhibition)
Conditions: read-out: hGal-3 IC50; table of Examples 5 to 25
Protocol: ASSAY BUFFER Composition: 25 mM HEPES, 100 mM NaCl, 0.005% Tween 20, 0.05% BSA prepared in sterile water (all reagents from Sigma).
Positive Control: 100% DMSO (1 μL)+His-tagged hGal-3 (20 μL)+β-ASF (20 μL)+Anti-His Terbium Antibody (5 μL)+Strep d2 Antibody (5 μL).
Negative Control: 100% DMSO (1 μL)+His-tagged hGal-3 (20 μL)+Anti His Terbium Antibody (5 μL)+Strep d2 Aantibody (5 μL).
PROTOCOL: The Gal-3 assays were performed in 384 white Opti plates in three replicates at room temperature with gentle shaking at 250-300 rpm From the original stocks, […] working stock concentrations of His-tagged recombinant human Gal-3 (hGal-3) and that of B-ASF were prepared. From the working stock, 20 μL of hGal-3 (15 nM) and 20 μL B-ASF (15 nM) were added to the plates. In Negative Control, only hGal-3 was added. A concentration range of 50× working stocks were prepared for the compounds in 100% DMSO. Aliquots of 1 μL of the compounds were added to the wells and pre-incubated with 20 μL hGal-3 per well for 30 minutes Then 20 μL B-ASF were added and incubated for another 1 hour. […] The assay signal was detected using HTRF screen protocol (Excitation wavelength=340 nm, emission wavelength=615 nm/665 nm) on Envision 2104 Multilabel Reader. Data analysed using Toolset and Curve Master. […]

Chains of the proteins cited; added tags and fusions are not shown.
UniProt P17931, whole entry: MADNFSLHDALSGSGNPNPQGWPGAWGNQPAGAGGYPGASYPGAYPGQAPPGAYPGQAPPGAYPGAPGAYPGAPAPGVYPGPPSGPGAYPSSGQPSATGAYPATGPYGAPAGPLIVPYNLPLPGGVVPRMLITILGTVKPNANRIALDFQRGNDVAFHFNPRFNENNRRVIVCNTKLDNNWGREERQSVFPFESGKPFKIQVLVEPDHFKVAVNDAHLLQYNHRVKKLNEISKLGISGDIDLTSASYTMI

| Structure (SMILES) | IC50 |
| --- | --- |
| Cc1nc([C@@H]2O[C@H](CO)[C@H](O)[C@H](n3cc(-c4cc(F)c(Cl)c(F)c4)nn3)[C@H]2OCC(=O)C2CCC2)n(-c2cc(Cl)ccc2C(F)(F)F)n1 | 28 nM |
| Cc1nc([C@@H]2O[C@H](CO)[C@H](O)[C@H](n3cc(-c4ccc(Cl)c(F)c4F)nn3)[C@H]2O)n(-c2cc(Cl)ccc2OC(F)(F)F)n1 | 17 nM |
